Measured values taken from patent US11744829B2, “Methods for treating neurological conditions and exposure to nerve agents” (dated 2023).

Legend:
soman induced seizures = assay: Seizure severity in P21 rats exposed to soman; conditions: LY293558 20 mg/kg i.m., CRM 50 mg/kg i.m., 1 h after exposure, within 120 min
amygdala = assay: Amygdala volume in P21 rats, 30 days and 3 months after soman; conditions: 30 days and 3 months after exposure, LY293558 20 mg/kg, CRM 50 mg/kg
hippocampus = assay: Hippocampus volume in P21 rats, 30 days and 3 months after soman; conditions: 30 days and 3 months after exposure, LY293558 20 mg/kg, CRM 50 mg/kg
[1] = tested on: GABAA receptor-mediated spontaneous IPSCs of BLA principal neurons; assay: Whole-cell recording of spontaneous IPSCs in BLA slices of treated P21 rats; conditions: 40 second time window, +30 mV holding potential
[2] = tested on: nerve agent induced-seizures; assay: Caramiphen given 30 or 60 minutes after soman, adult rats, behavioral seizure score; conditions: CRM administered 30 or 60 minutes after soman exposure
soman-exposed P21 rats = assay: Open field and acoustic startle response in P21 rats after soman exposure
soman-exposed P12 rats = assay: Behavioral and sIPSC outcome in P12 rats after soman exposure
[3] = 1 month after soman, compared to Control

Row | Molecule | suppression of seizure activity over 24 hours versus the soman only group (soman exposure; UBP302 250 mg/kg i.p.) | neuronal degeneration in the subcortex, 7 days after exposure (soman exposure; administered 1 hour after soman exposure) | total duration of SE over a 24 hour period (soman exposure; treatment at 1 or 2 hours following soman) | severity of soman induced seizures (soman induced seizures) | degeneration of the amygdala (estimated volume) (amygdala) | degeneration of the hippocampus (estimated volume) (hippocampus) | charge transferred by sIPSCs of BLA principal neurons ([1]; 3 month time point after soman) | charge transferred by sIPSCs of BLA principal neurons ([1]; 30 day time point after soman) | time for the behavioral seizure score to fall below stage 2 [2] | acoustic startle responses to 110 dB and 120 dB stimuli (soman-exposed P21 rats; [3]) | time spent in the center of the open field (soman-exposed P21 rats; [3]) | charge transferred by GABAA receptor-mediated spontaneous IPSCs (soman-exposed P12 rats; 30 days and 3 months after soman) | development of pathophysiological and behavioral deficits (soman-exposed P12 rats; LY293558 10 mg/kg i.m., CRM 50 mg/kg i.m., 60 min after soman, 30 days and 3 months) | increase in anxiety 1 month after soman-induced SE (soman-exposed P21 rats; LY293558 15 mg/kg i.m., CRM 50 mg/kg i.m., 60 min after soman)
1 | (S)-3-(2-carboxybenzyl)willardiine | 65% | reduced neuronal degeneration | superior to diazepam in seizure control over 24 hours |  |  |  |  |  |  |  |  |  |  | 
2 | CCN(CC)CCOC(=O)C1(c2ccccc2)CCCC1 |  |  |  | not effective in reducing seizure severity | failing to prevent degeneration of the amygdala | failing to prevent degeneration of the hippocampus | 378.68+−40.67 pC | 201.49±30.91 pC | 1 to 2 h | significantly increased | significantly reduced |  |  | 
3 | (3S,4aR,6R,8aR)-6-[2-(1(2)H-tetrazole-5-yl) ethyl]decahydroisoquinoline-3-carboxylic acid |  |  |  |  |  |  | 627.89±119.90 pC | 359.1±53.98 pC |  |  |  | prevented the reduction in charge transferred | reduced development of pathophysiological and behavioral deficits | prevented increase in anxiety
